Assay results taken from PMC10402201, “CYP5122A1 encodes an essential sterol C4-methyl oxidase in Leishmania donovani and determines the antileishmanial activity of antifungal azoles” (Research Square, 2023).

By UniProt entry, the sequences of proteins in these tests, tags left out. Residues count along the entry.
UniProt A0A3S7WRS7, 32-480: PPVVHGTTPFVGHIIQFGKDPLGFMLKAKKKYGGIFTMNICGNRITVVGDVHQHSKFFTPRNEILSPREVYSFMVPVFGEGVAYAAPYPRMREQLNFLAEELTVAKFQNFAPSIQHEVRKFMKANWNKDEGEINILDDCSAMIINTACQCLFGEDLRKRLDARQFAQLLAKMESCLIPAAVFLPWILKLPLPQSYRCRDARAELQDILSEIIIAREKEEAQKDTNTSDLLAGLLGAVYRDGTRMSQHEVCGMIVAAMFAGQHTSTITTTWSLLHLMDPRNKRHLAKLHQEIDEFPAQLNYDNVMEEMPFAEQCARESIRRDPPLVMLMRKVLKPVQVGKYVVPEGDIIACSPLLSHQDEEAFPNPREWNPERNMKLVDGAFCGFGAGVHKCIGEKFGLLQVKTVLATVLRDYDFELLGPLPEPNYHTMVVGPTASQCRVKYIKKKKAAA

Key:
CYP5122A1 = target: T1, CYP5122A1 (Leishmania donovani, UniProt A0A3S7X0B6); parameters: gene LdCL_270005800
T1 sequence (A0A3S7X0B6 61-592): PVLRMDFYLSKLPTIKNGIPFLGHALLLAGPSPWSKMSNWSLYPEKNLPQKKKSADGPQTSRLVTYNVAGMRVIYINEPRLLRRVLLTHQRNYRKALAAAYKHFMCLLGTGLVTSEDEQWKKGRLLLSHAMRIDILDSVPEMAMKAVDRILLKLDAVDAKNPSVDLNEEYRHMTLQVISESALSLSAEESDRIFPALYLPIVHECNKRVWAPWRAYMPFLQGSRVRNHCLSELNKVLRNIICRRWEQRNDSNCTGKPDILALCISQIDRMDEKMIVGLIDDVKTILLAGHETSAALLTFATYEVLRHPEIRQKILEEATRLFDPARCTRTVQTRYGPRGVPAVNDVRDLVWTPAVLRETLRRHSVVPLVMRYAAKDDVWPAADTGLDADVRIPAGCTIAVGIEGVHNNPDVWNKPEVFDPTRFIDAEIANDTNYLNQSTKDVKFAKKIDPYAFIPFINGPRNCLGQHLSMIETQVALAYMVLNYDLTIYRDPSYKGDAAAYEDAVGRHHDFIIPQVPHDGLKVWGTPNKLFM

CYP51 = target: T2, CYP51 (Leishmania donovani, UniProt A0A3S7WRS7); test: UV-Vis difference spectra (type II binding), plus BFC inhibition assay
T2 construct: gene LdCL_110017000; truncated form of XP_003859085.1 without the first 31 amino acids (transmembrane domain), N-terminal solubility tag, C-terminal His-tag

## CC[C@@H]([C@H](C)O)n1ncn(-c2ccc(N3CCN(c4ccc(OC[C@@H]5CO[C@@](Cn6cncn6)(c6ccc(F)cc6F)C5)cc4)CC3)cc2)c1=O [posaconazole]
CYP5122A1
  UV-Vis difference spectra (type II-like binding), plus BFC inhibition assay: Posaconazole exhibited type II binding to CYP51, but a type II-like binding to CYP5122A1
CYP51
  UV-Vis difference spectra (type II binding), plus BFC inhibition assay: Posaconazole exhibited type II binding to CYP51, but a type II-like binding to CYP5122A1
